We go through one compound from PubChem BioAssay AID705 (SRMLSC, 2007).

The structures appear in SMILES notation. Only a part is listed here, and it is no random draw. Active and inactive are the calls of the source.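 Rule for the calls: active = growth inhibition above 25% in both replicates, a cutoff set 3 SD above the mean; inconclusive = above 25% in only one replicate; inactive = the rest.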

The nature of this experiment: OD615 S. cerevisiae growth inhibition, permissive medium, pilot counter-assay, permissive growth control for S. cerevisiae lifespan shortening project (AID 705). The note with it: OD615, 24 h, at 10 µM, hits give high values. The essentials:
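System: Engineered DeaD yeast | Buffer or medium: SC raffinose/galactose permissive medium | Doses: 10 µM single dose, 0.25% DMSO | Times: 24 h exposure, 30 °C | Measured by: OD615 turbidity read | Read-out: Yeast growth inhibition indicated by reduced 24 h OD615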
Turning to `COC(=O)c1cc2c(s1)N=C(c1ccccc1)N(C)P2(=O)N1CCOCC1` (stereo unspecified), the growth inhibition was inactive: -6.42%.
